From PMC9917735, “Optimization of the Hemolysis Assay for the Assessment of Cytotoxicity” (International Journal of Molecular Sciences, 2023)

System: E. coli

`CC[C@H](C)[C@H](NC(=O)CN)C(=O)NCC(=O)N[C@@H](C)C(=O)N[C@H](C(=O)N[C@@H](CC(C)C)C(=O)N[C@@H](CCCCN)C(=O)N[C@H](C(=O)N[C@@H](CC(C)C)C(=O)N[C@H](C(=O)N[C@H](C(=O)NCC(=O)N[C@@H](CC(C)C)C(=O)N1CCC[C@H]1C(=O)N[C@@H](C)C(=O)N[C@@H](CC(C)C)C(=O)N[C@H](C(=O)N[C@@H](CO)C(=O)N[C@@H](Cc1c[nH]c2ccccc12)C(=O)N[C@H](C(=O)N[C@@H](CCCCN)C(=O)N[C@@H](CCCNC(=N)N)C(=O)N[C@@H](CCCCN)C(=O)N[C@@H](CCCNC(=N)N)C(=O)N[C@@H](CCC(N)=O)C(=O)N[C@@H](CCC(N)=O)C(N)=O)[C@@H](C)CC)[C@@H](C)CC)[C@@H](C)O)[C@@H](C)O)C(C)C)C(C)C` [Melittin, reference compound] was tested, and the “Minimum inhibitory concentration (E. coli)” value was 8 µM (≈ 22.8 µg/mL).

Values after ≈ are worked out from the molar mass of the structure shown.
